Test results: patent publication US20110091467A1 (CENTRE FOR ADDICTION AND MENTAL HEALTH, published 2011)

Chains of the proteins cited; added tags and fusions are not shown.
UniProt P23977, whole entry: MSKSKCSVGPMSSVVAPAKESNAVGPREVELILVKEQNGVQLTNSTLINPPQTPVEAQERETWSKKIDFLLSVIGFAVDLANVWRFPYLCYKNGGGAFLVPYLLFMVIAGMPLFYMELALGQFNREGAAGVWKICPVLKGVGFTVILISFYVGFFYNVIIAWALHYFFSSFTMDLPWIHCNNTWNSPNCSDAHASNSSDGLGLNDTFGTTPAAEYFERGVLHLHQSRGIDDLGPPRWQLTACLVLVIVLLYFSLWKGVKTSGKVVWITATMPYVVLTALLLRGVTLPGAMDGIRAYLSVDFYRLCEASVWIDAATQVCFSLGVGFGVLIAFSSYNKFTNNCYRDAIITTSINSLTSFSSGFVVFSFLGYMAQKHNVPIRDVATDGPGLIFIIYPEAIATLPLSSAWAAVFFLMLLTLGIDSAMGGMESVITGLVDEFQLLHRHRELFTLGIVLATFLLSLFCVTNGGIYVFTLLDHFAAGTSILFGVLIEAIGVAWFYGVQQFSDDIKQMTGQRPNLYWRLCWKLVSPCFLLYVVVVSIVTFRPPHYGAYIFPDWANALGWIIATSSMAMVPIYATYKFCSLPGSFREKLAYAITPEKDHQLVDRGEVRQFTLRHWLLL
UniProt P61169, whole entry: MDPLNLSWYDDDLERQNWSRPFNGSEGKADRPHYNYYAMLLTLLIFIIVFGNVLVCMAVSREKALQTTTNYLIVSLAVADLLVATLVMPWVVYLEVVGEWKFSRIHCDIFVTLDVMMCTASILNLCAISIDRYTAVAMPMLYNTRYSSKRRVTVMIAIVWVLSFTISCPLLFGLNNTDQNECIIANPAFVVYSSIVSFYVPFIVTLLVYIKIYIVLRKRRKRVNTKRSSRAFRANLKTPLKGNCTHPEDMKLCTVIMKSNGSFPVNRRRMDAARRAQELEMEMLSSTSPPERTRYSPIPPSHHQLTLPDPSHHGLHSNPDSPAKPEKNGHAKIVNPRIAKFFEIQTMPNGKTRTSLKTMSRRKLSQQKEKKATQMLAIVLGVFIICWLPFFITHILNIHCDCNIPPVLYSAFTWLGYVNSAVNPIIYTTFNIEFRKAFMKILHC

B1: GST fused to D2[IL3-2-2]: S259-I311 (other)
chain: MSPILGYWKIKGLVQPTRLLLEYLEEKYEEHLYERDEGDKWRNKKFELGLEFPNLPYYIDGDVKLTQSMAIIRYIADKHNMLGGCPKERAEISMLEGAVLDIRYGVSRIAYSKDFETLKVDFLSKLPEMLKMFEDRLCHKTYLNGDHVTHPDFMLYDALDVVLYMDPMCLDAFPKLVCFKKRIEAIPQIDKYLKSSKYIAWPLQGWQATFGGGDHPPKSPPERTRYSPIPPSHHQLTLPDPSHHGLHSTPDSPAKPEKNGHAKDHPKIAKI
notes: also called GST-D2[IL3-2-2]
B2: GST fused to DAT[CT]: L583-V620 (other)
chain: MSPILGYWKIKGLVQPTRLLLEYLEEKYEEHLYERDEGDKWRNKKFELGLEFPNLPYYIDGDVKLTQSMAIIRYIADKHNMLGGCPKERAEISMLEGAVLDIRYGVSRIAYSKDFETLKVDFLSKLPEMLKMFEDRLCHKTYLNGDHVTHPDFMLYDALDVVLYMDPMCLDAFPKLVCFKKRIEAIPQIDKYLKSSKYIAWPLQGWQATFGGGDHPPKLPGSFREKLAYAIAPEKDRELVDRGEVRQFTLRHWLKV
notes: also called GST fused DAT[CT]
B3: GST fused to D2[IL3-2-1]: E242-P271 (other)
chain: MSPILGYWKIKGLVQPTRLLLEYLEEKYEEHLYERDEGDKWRNKKFELGLEFPNLPYYIDGDVKLTQSMAIIRYIADKHNMLGGCPKERAEISMLEGAVLDIRYGVSRIAYSKDFETLKVDFLSKLPEMLKMFEDRLCHKTYLNGDHVTHPDFMLYDALDVVLYMDPMCLDAFPKLVCFKKRIEAIPQIDKYLKSSKYIAWPLQGWQATFGGGDHPPKEAARRAQELEMEMLSSTSPPERTRYSPIPP
notes: also called GST-D2[IL3-2-1]
B4: GST fused to D2[IL3-2-4] (E297-I311) (other)
chain: MSPILGYWKIKGLVQPTRLLLEYLEEKYEEHLYERDEGDKWRNKKFELGLEFPNLPYYIDGDVKLTQSMAIIRYIADKHNMLGGCPKERAEISMLEGAVLDIRYGVSRIAYSKDFETLKVDFLSKLPEMLKMFEDRLCHKTYLNGDHVTHPDFMLYDALDVVLYMDPMCLDAFPKLVCFKKRIEAIPQIDKYLKSSKYIAWPLQGWQATFGGGDHPPKEKNGHAKDHPKIAKI
notes: also called GST-D2[IL3-2-4]
B5: GST fused DAT[NT2] (A16-T43) (other)
chain: MSPILGYWKIKGLVQPTRLLLEYLEEKYEEHLYERDEGDKWRNKKFELGLEFPNLPYYIDGDVKLTQSMAIIRYIADKHNMLGGCPKERAEISMLEGAVLDIRYGVSRIAYSKDFETLKVDFLSKLPEMLKMFEDRLCHKTYLNGDHVTHPDFMLYDALDVVLYMDPMCLDAFPKLVCFKKRIEAIPQIDKYLKSSKYIAWPLQGWQATFGGGDHPPKAPAKEPNAVGPKEVELILVKEQNGVQLT
notes: also called GST-DAT[NT2]
B6: GST fused DAT[NT3] (K35-D68) (other)
chain: MSPILGYWKIKGLVQPTRLLLEYLEEKYEEHLYERDEGDKWRNKKFELGLEFPNLPYYIDGDVKLTQSMAIIRYIADKHNMLGGCPKERAEISMLEGAVLDIRYGVSRIAYSKDFETLKVDFLSKLPEMLKMFEDRLCHKTYLNGDHVTHPDFMLYDALDVVLYMDPMCLDAFPKLVCFKKRIEAIPQIDKYLKSSKYIAWPLQGWQATFGGGDHPPKKEQNGVQLTSSTLTNPRQSPVEAQDRETWGKKID
notes: also called GST-DAT[NT3]

Key:
[1] = biological target: T1, dopamine transporter (DAT) from solubilized rat striatal tissue (rat, UniProt P23977); assay: GST affinity purification (pull-down), Western blot for DAT
T1 construct: mature; Endogenous protein in a detergent extract of rat striatum, detected by Western blot with anti-DAT; also called solubilized DAT

[2] = biological target: T2, dopamine D2 receptor from solubilized rat striatal tissue (rat, UniProt P61169); assay: GST affinity purification (pull-down), Western blot for D2 receptor
T2 construct: mature; Endogenous protein in a detergent extract of rat striatum, detected by Western blot with anti-D2; also called D2 receptors

[3] = biological target: T2, dopamine D2 receptor from solubilized …; assay: GST affinity purification (pull-down) from solubilized rat striatum, Western blot for D2 receptor

Binder | binding result [1] | binding result [3] | also measured
B1 | no binding |  | 
B2 |  |  | binding result [2]: no binding
B3 | no binding |  | 
B4 | no binding |  | 
B5 |  | no binding | 
B6 |  | no binding | 
